An excerpt weighted towards active compounds, which were near 1% of everything screened.
Luc counter = counter-screen: inhibitors of Kinase-Glo firefly luciferase | Q27757 | Potency, µM (top dose mostly 38.3 µM), hits mostly inhibitors | 0.28% of 200,000 active | Kinase-Glo luciferase, ATP luminescence, 8 min | AID 1379; further: nearly all actives have a fitted effect of over 60% in size
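Substrate mix (final 50 mM imidazole pH 7.2, 50 mM KCl, 7 mM MgCl2, 10 uM ATP, 0.01% Tween 20, 0.05% BSA) plus pin-tool compound, then Kinase-Glo detection mix; 8 min ambient, luminescence read.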
RXFP1 antagonist = antagonists of human relaxin receptor RXFP1 | AID 1259400 | activity change, negative = inhibition, % at 57.5 µM | 0.59% of 350,000 active | HEK293-RXFP1, relaxin-stimulated cAMP HTRF, 30 min; stronger effect = lower value;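 active means activity change of -60% or lower, but not beyond a set lower limit; inconclusive means change between -60% and -40%, or beyond the set limit; inactive means change above -40%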
miR-21 reporter = raises the signal of a miR-21 reporter; AID 2288; 340,000 tested, under 10 active; Potency, µM (doses to about 38.3 µM); HeLa miR-21 FLuc reporter, luciferase, 48 h; active = well fitted rising curve with a large enough effect; inconclusive = small, poorly fitted or top-dose-only effect; inactive = no such curve, though single readings can be large or run the other way;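 note: miR-21 action dims this reporter so a rising signal means less miR-21 action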
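Compounds were titrated across several concentrations (up to approximately 40 uM) and incubated 48 hours with HeLa miR-21-FLuc reporter cells (miR-21 target sequence downstream of FLuc, endogenous miR-21). Readout was firefly luciferase luminescence after lytic detection reagent.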
RXFP1 agonist = activates the human relaxin receptor RXFP1; Q9HBX9; HEK293T-RXFP1 cAMP TR-FRET, 30 min; response scale: percent of porcine relaxin response, buffer zero; Potency, µM (top dose mostly 57.5 µM), usual class: activators; 0.3% of 370,000 active; further: nearly all actives have a fitted effect of over 60% in size
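Agonist response is measured as cAMP accumulation in an RXFP1-transfected HEK293T line under PDE4 inhibition. Values are scaled between buffer-only and 29 nM porcine relaxin, and EC50s come from standard Hill equation fits.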
gsp antagonist = antagonists of gsp mutant (McCune-Albright syndrome). gsp-mutant cells, cAMP HTRF, 30 min. Potency, µM (doses to about 76.9 µM), most hits filed as inhibitors. 0.4% of 340,000 active; calls by dose curve; cell line not stated here;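 further: intracellular cAMP measured with PDE inhibitor Ro 20-1724 present during compound exposure; nearly all actives have a fitted effect of over 65% in size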
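HTRF cAMP measurement after 30 min RT detection following 30 min, 37C compound treatment alongside […] (added as 300 uM solution) in G418-selected cells seeded at 2000/well and grown 16–24 h.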
gsp ag = gsp mutant agonism | gsp mutant cells, cAMP HTRF, 30 min | Potency, µM (highest dose often 76.9 µM), actives largely listed as activators | 0.13% of 340,000 active | AID 624287; active means well fitted activation curve with a large enough effect; inconclusive means small, poorly fitted or top-dose-only effect, or another doubt; inactive means no such curve, though single readings can be large or run the other way; cell line not stated here;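 further: phosphodiesterase inhibitor Ro 20-1724 added with compounds to block cAMP breakdown; nearly all actives have a fitted effect of over 60% in size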
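Cells stably selected in G418 were plated at 2000/well, grown 16-24 hr, then given compounds in DMSO with the PDE inhibitor […] (300 uM solution added) for 30 min at 37C; cAMP was read by HTRF.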
Hits are given with their value; . = inactive; ? = inconclusive; / = not tested or not shown; [ ] = remark or other dose. Unless noted, the call rests on the fitted dose curve; in most records, active means well fitted curve in the direction sought with a large enough effect; inconclusive means small, poorly fitted or top-dose-only effect, or another doubt; inactive means no such curve, though single readings can be large; an effect the other way counts as inactive or inconclusive.

SMILES	Luc counter	RXFP1 antagonist	miR-21 reporter	RXFP1 agonist	gsp antagonist	gsp ag
NC(=S)N/N=C/c1ccc(-n2nncc2-c2ccc(Cl)cc2)cc1	/	-73	.	.	.	.
N#Cc1c(-c2ccc([N+](=O)[O-])cc2)nc2n(c1=O)CCS2	/	.	.	.	.	14µM
CCCN(CC(=O)Nc1cccc(Br)c1)CC(=O)Nc1ccc(F)c(F)c1F	/	.	.	.	50µM	?
CN1CCN(S(=O)(=O)c2ccc3c(c2)C(C)(C)C(=O)N3C)CC1	/	.	.	.	.	.
CN1C(=O)C(C)(C)c2cc(S(=O)(=O)N3CCN(c4ccc(F)cc4)CC3)ccc21	/	-60	.	.	.	.
CCOc1ccccc1NC(=O)Cn1nnc2sc(-c3ccccc3)cc2c1=O	/	.	.	.	/	/
CC1CN(S(=O)(=O)c2ccc(C(=O)Nc3nnc(-c4ccco4)o3)cc2)CC(C)O1 (stereo not drawn)	.	.	.	.	.	?
COc1cccc(-c2nnc(NC(=O)c3ccc(S(=O)(=O)N4CC(C)OC(C)C4)cc3)o2)c1 (stereo not drawn)	.	.	.	.	35µM	.
NC(=O)CSc1nc2c(c(=O)n1-c1ccccc1)C1(CCCCC1)Cc1ccccc1-2	.	.	.	.	.	.[15.4 µM]
Cc1cccc(-n2c(SCC(N)=O)nc3c(c2=O)C2(CCCC2)Cc2ccccc2-3)c1	.	/	.	.	.	10µM
CC1=CSC2=NS(=O)(=O)CCN12	/	.	.	.	.	.
O=S1(=O)CCN2C(Cc3ccc(SC(F)F)cc3)=CSC2=N1	.	.	.	.	32µM	?
C=C(C)Cn1c(CCn2c3ccccc3c3ccccc32)n[nH]c1=S	.	-65	.	.	.	.
Cc1ccc(N(CC(=O)NCCc2ccc(F)cc2)S(=O)(=O)c2ccc(Cl)c([N+](=O)[O-])c2)c(C)c1	.	.	?	.	25µM	.
Cc1ccc(C)c(N2CCN(C(=O)C34CC5CC(C3)CC(n3nnc(C)n3)(C5)C4)CC2)c1	/	?	.	.	40µM	.[15.4 µM]
Cc1ccc(OCCSc2nc3ccccc3n2CC(=O)N2CCOCC2)c(C)c1	/	/	.	.	/	/
O=C(CCN1C(=O)c2ccccc2S1(=O)=O)Nc1ccc(F)cc1F	/	.	.	.	.	.
O=C(CCN1C(=O)c2ccccc2S1(=O)=O)Nc1ccc(F)c(F)c1F	/	-76	/	.	.	.[15.4 µM]
O=C(CN1C(=O)c2ccccc2S1(=O)=O)N1CCN(c2ccccc2F)CC1	.	.	.	.	.	.
O=C(CCN1C(=O)c2ccccc2S1(=O)=O)N1CCN(c2ccccc2F)CC1	/	-112	/	.	.	.[15.4 µM]
O=C(c1ccccc1)C(CN1CCCCC1)c1ccccc1 (stereo not drawn)	/	-82	/	/	.	.
O=C(c1ccc(Br)cc1)C(CN1CCOCC1)c1ccccc1 (stereo not drawn)	/	?	?	.	.	.[15.4 µM]
CC(=O)/C(N=Nc1c(C)n(C)n(-c2ccccc2)c1=O)=C(\C)O	.	.	.	.	.	11µM
CN(C)c1ccc(C(CNC(=O)COc2ccc(Cl)cc2)N2CCCC2)cc1 (stereo not drawn)	/	-64	.	.	.	.
Cc1cc(C)nc(N/N=C/c2ccccc2)n1	.	.	.	.	.	.
SMILES	Luc counter	RXFP1 antagonist	miR-21 reporter	RXFP1 agonist	gsp antagonist	gsp ag
Cc1cc(-c2ccccc2)nc(N/N=C/c2ccc(O)cc2)n1	/	-77	/	.	.	.[15.4 µM]
Oc1ccc(/C=N/Nc2nc(-c3ccc(Cl)cc3)cc(C(F)(F)F)n2)cc1	.	-61	?	.	?	.
Fc1ccc(CNc2nc(-c3ccc(Cl)cc3)cc(C(F)(F)F)n2)cc1	/	/	.	.	/	/
O=C(CCCn1c(=O)c2cccn2c2ccccc21)Nc1cc(C(F)(F)F)ccc1Cl	/	.	.	.	/	/
Cc1nn(-c2ccccc2)c2c1N(CC(=O)N1CCN(c3ccc(F)cc3)CC1)C(=O)CS2	/	/	.	.	/	/
CCOc1ccccc1C(=O)Nc1ccc(C(=O)c2ccccc2)cc1	/	.	.	.	25µM	.
O=C(Nc1ccc(C(=O)c2ccccc2)cc1)c1ccccc1	/	.	.	.	40µM	.[15.4 µM]

Screening data from PubChem BioAssay.
